Laboratory results reported in patent publication US7848557B2, “Rapid multi-tracer PET imaging systems and methods” (priority 2007, dated 2010).

Conditions: secondary tumor region (II), same dog; consistent with an under-perfused hypoxic region

For “Cu-diacetyl-bis[N4-methylthiosemicarbazone] [ATSM]”, the retention was “prolonged retention”.
